Test results as given in patent publication US6448405B1, “Steroid receptor modulator compounds and methods” (Ligand Pharmaceuticals Incorporated, priority 1994, dated 2002).

Sequences of proteins named here, by UniProt entry; tags and fusion partners are left off. A change or cut given only in a name is not applied to a line headed by its entry.
UniProt P10275: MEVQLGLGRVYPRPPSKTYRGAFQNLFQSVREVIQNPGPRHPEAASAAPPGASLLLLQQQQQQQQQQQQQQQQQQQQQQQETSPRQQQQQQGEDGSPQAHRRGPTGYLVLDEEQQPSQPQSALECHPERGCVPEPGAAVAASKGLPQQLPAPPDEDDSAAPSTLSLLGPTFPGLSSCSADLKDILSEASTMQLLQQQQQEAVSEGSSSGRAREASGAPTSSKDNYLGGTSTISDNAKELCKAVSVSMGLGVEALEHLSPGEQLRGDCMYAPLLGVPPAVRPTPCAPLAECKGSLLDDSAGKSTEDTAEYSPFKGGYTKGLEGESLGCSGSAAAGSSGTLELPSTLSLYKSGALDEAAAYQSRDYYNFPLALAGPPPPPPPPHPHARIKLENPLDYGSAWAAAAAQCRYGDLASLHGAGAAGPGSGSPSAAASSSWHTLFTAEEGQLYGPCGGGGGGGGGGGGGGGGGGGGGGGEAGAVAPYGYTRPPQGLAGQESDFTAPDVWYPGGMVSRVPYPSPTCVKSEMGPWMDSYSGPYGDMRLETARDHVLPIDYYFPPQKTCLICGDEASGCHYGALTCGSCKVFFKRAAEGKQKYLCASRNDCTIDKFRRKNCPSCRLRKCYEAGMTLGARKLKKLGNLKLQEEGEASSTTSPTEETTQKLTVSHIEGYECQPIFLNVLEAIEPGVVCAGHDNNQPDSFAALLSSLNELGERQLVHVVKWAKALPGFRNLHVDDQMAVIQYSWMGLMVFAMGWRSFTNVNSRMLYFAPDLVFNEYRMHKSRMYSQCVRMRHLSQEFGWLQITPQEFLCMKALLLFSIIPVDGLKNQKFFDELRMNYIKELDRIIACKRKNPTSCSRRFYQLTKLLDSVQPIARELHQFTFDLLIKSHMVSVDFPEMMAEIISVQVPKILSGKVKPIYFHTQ

Molecular target: human AR (Homo sapiens, UniProt P10275)
Assay: AR whole cell binding assay, transfected COS-1 cells, 3H-DHT
Conditions: read-out: AR Binding Ki; competition with 1 nM 3H-DHT, COS-1 whole cells, three hours at 37° C.

(R/S)-4-Ethyl-1,2,3,4-tetrahydro-1-methyl-8-pyranono[5,6-g]quinoline [Compound 416]
Ki: 388 nM
